Data published in article PMC7349888, “Synthesis and Evaluation of Dodecaboranethiol Containing Kojic Acid (KA-BSH) as a Novel Agent for Boron Neutron Capture Therapy” (Cells, 2020).
“And” between values parts separate entries of the source, which are not always exact repeats. Equal entries are not always repeated.

Tested on: F98 glioma bearing rats
Experiment: Biodistribution in F98 glioma bearing rats (ICP-AES)
Assay type: in vivo, rat
Settings: iv
Text: All animal experimental procedures were approved by the Animal Use Review Board and Ethical Committee of Osaka Medical College (No. 25092, 28 October 2015) and Kyoto University Research Reactor Institute (KURRI, No. 25030-13, 1 April 2015), and performed following the Guide for the Care and Use of Laboratory Animals. Eight-week-old, male Fischer 344 rats weighing between 200 and 250 g were used (Japan SLC, Inc. Shizuoka, Japan). Rats were anesthetized with an intraperitoneal (ip) injection of a mixture of medetomidine 0.15 mg, midazolam 2 mg, and butorphanol 2.5 mg/kg body weight (bw). The head of each rat was fixed with a stereotactic frame (Model 900; David Kopf Instruments, Tujunga, CA, USA). The scalp was incised at the midline and a small burr hole was drilled into the skull (1 mm posterior and 4 mm right-lateral to the bregma), using an electric drill. And then, F98 glioma cells were injected into the brain using a 25 µL Hamilton microsyringe with a 26-gauge needle (model 1700 RN, Hamilton Bonaduz AG, Bonaduz, Switzerland). The needle was inserted at a 5 mm depth from the skull and F98 cells were diluted in 10 µL of DMEM containing low-gelling temperature agarose at a concentration of either 10^3 for therapeutic experiments or 10^5 cells for biodistribution experiments. They were injected over 30 s using an automatic infuser pump. The needle entry hole was immediately sealed with bone wax and the incised scalp was closed with 3-0 silk sutures (Ethicon, North Ryde, NSW). After surgery, all animals were given atipamezole hydrochloride (0.15 mg/kg bw, ip).
Biodistribution studies were performed in Fischer rats bearing intracerebral implants of F98 rat glioma cells. 10–13 days after tumor implantation of 10^5 F98 glioma cells, when signs of a progressively growing tumor were evident (weight loss, lethargy, hunching, and ataxia), biodistribution studies were initiated at which time the animals had tumors weighing 90–180 mg. […] To compare its biodistribution with that of BPA or BSH, another group of rats received an iv injection of BPA at a concentration of 10 mg ^10B/kg bw or BSH at a concentration of 30 mg ^10B/kg bw. Biodistribution was determined 1 and 3 h after termination of iv injection. Animals were euthanized by an overdose of sevoflurane following which tumors and normal tissues, consisting of ipsilateral brain, contralateral brain, blood, heart, lung, liver, spleen, kidney, skin, and muscle, were removed and weighed for ^10B determination by ICP-AES.

S-(2-(5-hydroxy-4-oxo-4H-pyran-2-yl) methyl) Thioundecahydro-Closo- Dodecaborate (2-) Disodium Salt [KA-BSH]
10B concentration, Kidney (10 mg 10B/kg, 1 h): 13.86 µg 10B/g | 10B concentration, Kidney (10 mg 10B/kg, 3 h): 3.35 µg 10B/g | 10B concentration, Kidney (20 mg 10B/kg, 1 h): 15.56 µg 10B/g | 10B concentration, Kidney (20 mg 10B/kg, 3 h): 3.22 µg 10B/g | 10B concentration, Kidney (30 mg 10B/kg, 1 h): 28.15 ± 7.96 µg 10B/g and 28.15 µg 10B/g | 10B concentration, Kidney (30 mg 10B/kg, 3 h): 5.27 ± 0.63 µg 10B/g and 5.27 µg 10B/g
